Antibody variant affinities, Ab-14 heavy chain, assay 1

Values reported by Engelhart et al. 2022, doi:10.1038/s41597-022-01779-4 (FLAb copy).

Binding partner: SARS-CoV-2 spike HR2 peptide, sequence PDVDLGDISGINAS.

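Phage display of a naive human antibody library on the peptide gave the parent. Library AAYL49 holds single substitutions and randomly drawn double and triple substitutions in the CDRs. The scFvs were displayed on barcoded MATa yeast, the peptide on MATalpha yeast. The frequency of each diploid, read from paired DNA barcodes, reflects how well the two displayed proteins bind. Read counts were normalised to the haploid input and turned into Kd by a linear fit to BCL2-family pairs of known affinity, for each replicate. Mating was done three times.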

Ab-14 is the parent antibody, in scFv form: VH, then three GGGGS repeats, then VL. The light chain is unchanged in all variants.
VH: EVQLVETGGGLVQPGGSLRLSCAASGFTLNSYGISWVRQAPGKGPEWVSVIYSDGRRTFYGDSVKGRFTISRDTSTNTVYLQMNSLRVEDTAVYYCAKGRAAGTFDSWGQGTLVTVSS
VL: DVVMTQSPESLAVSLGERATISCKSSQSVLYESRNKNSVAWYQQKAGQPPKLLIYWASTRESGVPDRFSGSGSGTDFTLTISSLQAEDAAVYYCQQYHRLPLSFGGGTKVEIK

Positions count from residue 1 of the parent VH; G26L puts L in place of G.
Affinities are written as log10 Kd with Kd in nM; a lower number is a better binder.
A mean of the replicates is given; it leaves out those without a signal.
"ND" marks a missing value. The strain was present, yet no cells mated with the target were sequenced in that replicate, which points to weak or no binding.
As a blank, each scFv also met three strains without target: over library AAYL49, 15% of these pairings were detected, typically at 4.06 and seldom below 2.83.
For reference, the parent read 0.65 as the reference entry and 4.11 (one replicate of three) as a member of this library.

| changes | log10 Kd (nM) by replicate | log10 Kd (nM), mean |
|---|---|---|
| G26L/I51T/A102T | ND ND ND | ND |
| G26A/D62R/R100H | 2.39 2.42 2.74 | 2.52 |
| L29G/I51N/A102D | 5.38 ND ND | 5.38 |
| D54W/R57V/F59M | ND 4.68 5.38 | 5.03 |
| V50R/G55V/D62C | ND ND ND | ND |
| S31V/F59I/S107T | ND ND ND | ND |
| Y32E/T58R/V64E | ND ND ND | ND |
| N30D/V50Y/V64C | ND ND ND | ND |
| G33A/F59N/D62P | ND 4.99 ND | 4.99 |
| T28M/N30C/G61H | 2.04 1.71 2.28 | 2.01 |
| S31L/S53Y/D62L | ND ND ND | ND |
| N30Q/S35F/S107W | ND ND ND | ND |
| R57L/F105H/D106L | ND ND 4.19 | 4.19 |
| D54G/T104Y/D106A | ND ND 3.18 | 3.18 |
| Y52M/G61N/R100C | ND ND ND | ND |
| V50C/S53P/R57S | ND ND 5.11 | 5.11 |
| I34A/G99V/R100M | 5.56 ND ND | 5.56 |
| N30E/I51L/T58M | 2.92 2.35 1.56 | 2.28 |
| I34E/S53A/A102P | 4.31 3.45 4.45 | 4.07 |
| S63A/G99K | ND ND ND | ND |
| F59I/V64I | 3.75 ND ND | 3.75 |
| Y60F/K65I | ND ND ND | ND |
| F27S/R56W/D106A | ND ND ND | ND |
| F27E/T58D/R100W | ND ND ND | ND |
| G26I/T28K/R56A | 5.47 ND ND | 5.47 |
| G33D/F59I/G99I | ND 3.54 ND | 3.54 |
| F27E/G103N/T104I | ND ND 2.38 | 2.38 |
| V50C/G61V/F105L | 5.88 3.64 ND | 4.76 |
| S35H/S53L/F105I | ND ND 4.82 | 4.82 |
| L29K/I34Q/D106Q | ND 4.17 5.81 | 4.99 |
| T28L/N30L/S107Q | 1.83 2.00 2.58 | 2.13 |
| G33E/S63G/T104V | ND ND 3.89 | 3.89 |
| G33H/V64F/G99E | 3.64 ND 2.95 | 3.29 |
| N30D/S53E/F105P | ND ND ND | ND |
| T58E/A101E/G103F | ND 3.11 ND | 3.11 |
| L29E/D54I/R56D | 4.67 3.34 ND | 4.00 |
| S35Q/D54G/A102N | ND ND ND | ND |
| G26T/S31F/Y60K | 5.22 5.13 4.77 | 5.04 |
| I34K/I51D/R100E | ND ND ND | ND |
| G26K/S53L/G55H | 4.27 4.14 ND | 4.20 |
| T58A/R100Y | 1.36 1.51 1.56 | 1.48 |
| G99C/A101S/S107I | 1.41 1.59 1.64 | 1.55 |
| T28G/K65D/D106A | ND 2.41 ND | 2.41 |
| R56N/G99I/S107Q | ND ND ND | ND |
| F27W/S53A/D106N | 2.31 2.30 2.27 | 2.29 |
| T28E/L29P/G103T | ND 3.67 ND | 3.67 |

The 2 strongest on average among those seen in every replicate, once more:

changes	log10 Kd (nM) by replicate	log10 Kd (nM), mean
T58A/R100Y	1.36 1.51 1.56	1.48
G99C/A101S/S107I	1.41 1.59 1.64	1.55